Experiment [1] deals with T1, HLA-A*0202 (human).
T1 construct: purified HLA class I molecule
Briefly: competitive inhibition assay, purified HLA.

Experiment [2] deals with T1, HLA-A*0202. Description: competitive inhibition assay, purified HLA. The source holds these as a separate data set.

Where two headings read alike, the source gives them in different places.

B1: Her2/neu.952 (peptide)
peptide: YMIMVKCWMI
notes: native HER2/neu peptide
Regarding B1, the half-inhibitory concentration (IC50) with HLA-A*0202 [1] and with HLA-A*0202 [2] was 307 nM each time.

(Values after patent publication US20070098776A1 (published 2007).)
